From PubChem BioAssay AID680 (PCMD, 2007) come the findings set out here.

Amino acid sequences for entries named in this document (tags omitted).
UniProt P03951, whole entry, looked up: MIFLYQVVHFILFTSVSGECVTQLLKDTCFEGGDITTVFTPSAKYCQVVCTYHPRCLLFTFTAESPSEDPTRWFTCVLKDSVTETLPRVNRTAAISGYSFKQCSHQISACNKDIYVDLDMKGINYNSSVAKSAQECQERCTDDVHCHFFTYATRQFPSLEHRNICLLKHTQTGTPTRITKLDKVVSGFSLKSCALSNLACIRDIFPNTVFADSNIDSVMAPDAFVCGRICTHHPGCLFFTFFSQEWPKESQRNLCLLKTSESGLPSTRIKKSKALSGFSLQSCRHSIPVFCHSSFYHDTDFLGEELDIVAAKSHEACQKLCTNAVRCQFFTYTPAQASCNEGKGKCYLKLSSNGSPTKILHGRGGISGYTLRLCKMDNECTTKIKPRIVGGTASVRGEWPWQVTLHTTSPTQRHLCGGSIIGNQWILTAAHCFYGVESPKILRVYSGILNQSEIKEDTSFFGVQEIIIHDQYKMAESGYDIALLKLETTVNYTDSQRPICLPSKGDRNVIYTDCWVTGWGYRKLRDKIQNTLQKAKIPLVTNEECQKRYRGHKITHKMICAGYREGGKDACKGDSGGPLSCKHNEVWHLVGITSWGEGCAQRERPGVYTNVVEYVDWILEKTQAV

The entries are a selection whose mix differs from that of the whole data set. Activity calls are given as the source filed them. Rule as the data show it: active = inhibition above about 20% (passing the limit was not always enough); inactive = the rest.

The assay deals with Coagulation factor XI (Homo sapiens) (UniProt P03951). Briefly: FXIa protease inhibitors in compound pools, primary screen, biochemical, 10-compound mixtures (AID 680).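 Also: each value is inhibition by a whole ten-compound pool holding the compound; 0% = enzyme with no mixture and 100% = wells lacking enzyme.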 The note with it: purified FXIa, fluorogenic substrate, pooled mixtures; at 5 µM; hits give high values.
A word on the inhibition: it is the change of the read-out against control, counted positive when it falls. As to `Cc1c2non([O-])c-2c(C)[n+](=O)[n+]1[O-]`, the inhibition is inactive: 4.2%.
On to `CCc1nc2c(n1)c1c(non1O)c1c2no[n+]1[O-]`, for which the inhibition is inactive: 2.02%.
As to `O=P(Nc1nccs1)(c1ccccc1)c1ccccc1`, the inhibition was inactive: -1.48%.
As to `c1nnnn1CCn1cnnn1`, the inhibition is inactive: 3.35%.
`O=C(OC1CN2CCC1CC2)c1cccc(Cl)c1` (stereo not given): the inhibition is inactive: 5.18%.
To `COC(=O)c1cc2c(s1)N=C(c1ccccc1)N(C)P2(=O)N1CCOCC1` (stereo not given) belongs inactive: 42%; to `O=P1(Nc2nc3ccc(Cl)cc3s2)COc2ccccc2O1` (stereo not given), inactive: 7.66%.
For the compound `Cc1cccc(OCC(=O)OC2CN3CCC2CC3)c1` (stereo not given), the inhibition was inactive: 7.7%.
As for `CCOP1(=S)c2c(C)nn(CCC#N)c2N=C(c2ccccc2F)N1C` (stereo not given), the inhibition is inactive: -8%.
As to `O=P(Nc1nccs1)(c1ccccc1)c1nc2ccccc2s1` (stereo not given), the inhibition was inactive: 3.68%.
With `CCOP1(=S)c2c(C)nn(CCC#N)c2N=C(c2ccc(F)cc2)N1C` (stereo not given), the inhibition is inactive: 0.67%.
Regarding `Cc1nn(-c2ccccc2)c2c1P(=O)(N1CCOCC1)N(C)C(c1ccccc1)=N2` (stereo not given), the inhibition was inactive: 3.04%.
To `O=P1(Nc2ncccn2)COc2ccccc2OC1` belongs inactive: -0.245%; to `O=P1(Nc2ccc(Br)cn2)COc2ccccc2OC1`, inactive: 3.97%; to `Cc1ccc(OCC(=O)OC2CN3CCC2CC3)cc1` (stereo not given), inactive: 3.26%.
Regarding `O=P1(Nc2ccccn2)COc2ccccc2OC1`, the inhibition was inactive: 7.19%.
To `Clc1n[nH]nc1-c1nn[nH][15n]1` belongs inactive: 17.3%.
On to `COP1(=S)c2c(C)nn(CCC#N)c2N=C(c2ccc(F)cc2)N1C` (stereo not given), for which the inhibition was inactive: 4.6%.
In the case of `O=C(COc1ccccc1)OC1CN2CCC1CC2` (stereo not given), the inhibition was inactive: 10.4%.
Turning to `O=C(OC1CN2CCC1CC2)C12CC3CC(CC(C3)C1)C2` (stereo not given), the inhibition was inactive: 3.45%.
